According to PubChem BioAssay (NCI):
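Cultured in 96-well plates, cells were exposed to test compound for 48 hours across five concentrations. GI50: concentration for 50% inhibition of growth. The concentration for full growth arrest is given as TGI.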

Key:
Experiment in all cases: DTP human tumour cell line panel, 48 h
[1] = system: MOLT-4 leukemia
[2] = system: HS 578T breast
[3] = system: SR leukemia
[4] = system: K-562 leukemia
[5] = system: CCRF-CEM leukemia
[6] = system: NCI-H522 lung
[7] = system: MDA-MB-435
[8] = system: LOX IMVI melanoma
[9] = system: T-47D breast
[10] = system: MDA-N
[11] = system: MCF7 breast
[12] = system: HL-60(TB) leukemia
[13] = system: RPMI-8226 leukemia
[14] = system: SF-268 CNS
[15] = system: OVCAR-4 ovarian
[16] = system: SK-MEL-5 melanoma
[17] = system: 786-0 renal
[18] = system: OVCAR-8 ovarian
[19] = system: HCT-15 colon
[20] = system: HT29 colon
[21] = system: MALME-3M melanoma
[22] = system: HOP-62 NSCLC
[23] = system: OVCAR-5 ovarian
[24] = system: ACHN renal
[25] = system: NCI-H322M lung
[26] = system: U251 CNS
[27] = system: PC-3 prostate
[28] = system: UO-31 renal
[29] = system: TK-10 renal
[30] = system: UACC-62 melanoma
[31] = system: COLO 205 colon
[32] = system: DU-145 prostate
[33] = system: SF-539 CNS
[34] = system: SF-295 CNS
[35] = system: UACC-257 melanoma
[36] = system: HCC-2998 colon
[37] = system: CAKI-1 renal
[38] = system: OVCAR-3 ovarian
[39] = system: HCT-116 colon
[40] = system: NCI-H460 lung
[41] = system: HOP-92 NSCLC
[42] = system: RXF 393 renal
[43] = system: A498 renal
[44] = system: SK-MEL-2 melanoma
[45] = system: SK-OV-3 ovarian
[46] = system: NCI-H226 lung
[47] = system: SN12C renal
[48] = system: BT-549 breast
[49] = system: SNB-75 CNS
[50] = system: A549 NSCLC
[51] = system: SK-MEL-28 melanoma
[52] = system: SW-620 colon
[53] = system: NCI-H23 lung
[54] = system: SNB-19 CNS
[55] = system: EKVX NSCLC
[56] = system: IGROV1 ovarian
[57] = system: KM12 colon
[58] = system: NCI/ADR-RES ovarian
[59] = system: MDA-MB-231 breast

CC(=O)OC[C@]12CCC(C)=C[C@H]1O[C@@H]1[C@H](O)[C@@H](OC(C)=O)[C@@]2(C)[C@@]12CO2
TGI [1]: 176 nM
TGI [2]: 29.8 nM
GI50 [3]: < 10 nM
TGI [3]: < 10 nM
GI50 [4]: 17.9 nM
GI50 [5]: < 10 nM
TGI [5]: < 0.01 µM
TGI [6]: 23.8 nM
GI50 [7]: 21.4 nM
TGI [7]: 101 nM
TGI [8]: 17.6 nM
TGI [9]: 30.4 nM
GI50 [10]: 14.8 nM
TGI [10]: 24 nM
GI50 [11]: 16 nM
TGI [12]: > 100000 nM
TGI [13]: > 100 µM

Nc1c([N+](=O)[O-])cc([N+](=O)[O-])c(-c2nnc(-c3c([N+](=O)[O-])cc([N+](=O)[O-])c(N)c3[N+](=O)[O-])s2)c1[N+](=O)[O-]
GI50 [14]: 1970 nM
TGI [14]: 4.53 µM
GI50 [15]: 1430 nM
TGI [15]: 2730 nM
GI50 [16]: 1700 nM
TGI [16]: 3.42 µM
GI50 [17]: 351 nM
TGI [17]: 1130 nM
GI50 [18]: 600 nM
TGI [18]: 1460 nM
GI50 [19]: 1220 nM
TGI [19]: 2760 nM
GI50 [20]: 1150 nM
TGI [20]: 2560 nM
GI50 [1]: 682 nM
TGI [1]: 3100 nM
GI50 [21]: 1620 nM
TGI [21]: 3.33 µM
GI50 [2]: 2040 nM
TGI [2]: 5460 nM
GI50 [22]: 1780 nM
TGI [22]: 3.2 µM
GI50 [23]: 1690 nM
TGI [23]: 3.12 µM
GI50 [24]: 1760 nM
TGI [24]: 3.33 µM
GI50 [3]: 725 nM
TGI [3]: 2920 nM
GI50 [4]: 301 nM
TGI [4]: 1050 nM
GI50 [25]: 1900 nM
TGI [25]: 4.75 µM
GI50 [5]: 449 nM
TGI [5]: 8.4 µM
GI50 [26]: 551 nM
TGI [26]: 1570 nM
GI50 [6]: 1380 nM
TGI [6]: 2920 nM
GI50 [27]: 1300 nM
TGI [27]: 2690 nM
GI50 [7]: 1170 nM
TGI [7]: 2460 nM
GI50 [28]: 2180 nM
TGI [28]: 4.72 µM
GI50 [29]: 3.14 µM
TGI [29]: 8.23 µM
GI50 [30]: 739 nM
TGI [30]: 2090 nM
GI50 [31]: 1430 nM
TGI [31]: 2830 nM
GI50 [32]: 2480 nM
TGI [32]: 7.05 µM
GI50 [8]: 225 nM
TGI [8]: 593 nM
GI50 [33]: 1510 nM
TGI [33]: 4.35 µM
GI50 [34]: 1910 nM
TGI [34]: 3.94 µM
GI50 [35]: 1580 nM
TGI [35]: 3.01 µM
GI50 [36]: 1430 nM
TGI [36]: 2910 nM
GI50 [37]: 2310 nM
TGI [37]: 6.21 µM
GI50 [38]: 915 nM
TGI [38]: 2230 nM
GI50 [9]: 1940 nM
TGI [9]: 4820 nM
GI50 [39]: 1100 nM
TGI [39]: 2400 nM
GI50 [40]: 1970 nM
TGI [40]: 4.34 µM
GI50 [41]: 1470 nM
TGI [41]: 2800 nM
GI50 [10]: 953 nM
TGI [10]: 2170 nM
GI50 [42]: 603 nM
TGI [42]: 1900 nM
GI50 [43]: 2470 nM
TGI [43]: 6.03 µM
GI50 [44]: 1640 nM
TGI [44]: 3.28 µM
GI50 [45]: 2550 nM
TGI [45]: 7.69 µM
GI50 [11]: 345 nM
TGI [11]: 1170 nM
GI50 [46]: 2260 nM
TGI [46]: 6.54 µM
GI50 [47]: 537 nM
TGI [47]: 1170 nM
GI50 [48]: 860 nM
TGI [48]: 2240 nM
GI50 [49]: 1260 nM
TGI [49]: 2520 nM
GI50 [50]: 4.87 µM
TGI [50]: 20.4 µM
GI50 [51]: 1660 nM
TGI [51]: 3.22 µM
GI50 [52]: 416 nM
TGI [52]: 1550 nM
GI50 [53]: 1710 nM
TGI [53]: 3.46 µM
GI50 [12]: 320 nM
TGI [12]: 1500 nM
GI50 [54]: 3.02 µM
TGI [54]: 12.3 µM
GI50 [55]: 2480 nM
TGI [55]: 6.77 µM
GI50 [13]: 1790 nM
TGI [13]: 5.47 µM
GI50 [56]: 1700 nM
TGI [56]: 3.17 µM
GI50 [57]: 1120 nM
TGI [57]: 2380 nM
GI50 [58]: 2280 nM
TGI [58]: 8.01 µM
GI50 [59]: 1270 nM
TGI [59]: 2520 nM
